We go through one substance from patent publication US20220040324A1, “COMBINATION OF ANTIBODY-DRUG CONJUGATE AND KINASE INHIBITOR” (DAIICHI SANKYO COMPANY, LIMITED, priority 2018, published 2022).

One experiment relates to NCI-N87 cell line. The format is cell-based, human. As to the method:
The human gastric cancer cell line NCI-N87 purchased from ATCC was used for evaluation. To a 1536-well cell culture plate, erlotinib (hydrochloride), poziotinib, mubritinib, brigatinib, or BIBF1120 prepared with dimethyl sulfoxide (DMSO) to concentrations of 2 mM, 400 μM, 80 μM, 16 μM, 3.2 μM, and 640 nM, or DMSO was added at 25 nL/well. […] Subsequently, NCI-N87 cells suspended with an RPMI1640 Medium containing 10% fetal bovine serum to a concentration of 4×10^4 cells/mL were seeded at 2.5 μL/well, and cultured at 37° C. under 5% CO2 for 6 days.
After culturing, a solution obtained by diluting CellTiter-Glo 2.0 Assay (Promega Corporation) with an equivalent amount of Glo Lysis buffer, 1×(Promega Corporation) was added at 2 μL/well, and incubation was performed at room temperature for 1 hour, and luminescence intensity was then measured for each well.
Cell growth inhibition rate (%) was calculated by using the following calculation expression.
T: Mean luminescence intensity of wells with specimen B: Mean luminescence intensity of wells with DMSO and medium C: Mean luminescence intensity of wells with DMSO and cells
Sigmoid fitting with Genedata Screener Analyzer Version 14 (Genedata AG, hereinafter referred to as Screener) was performed for concentration-dependent transition of cell growth inhibition rates under each of combined use conditions.

Experiment [1] deals with MDA-MB-453 cells. The experiment in a line: Antitumor test (5): nude mice with subcutaneously transplanted MDA-MB-453 cells. The format is in vivo, human. The following applies: single administration; antibody-drug conjugate (1) 0.5 mg/kg iv on Day 0. The method, then:
(§1) Mouse: 5 to 6-week-old BALB/c nude mice (Charles River Laboratories Japan, Inc.) were subjected to experiment.
(§2) Assay and calculation expression: In all of the studies, the major axis and minor axis of a tumor were measured twice a week by using an electronic digital caliper (CD15-CX, Mitutoyo Corp.), and the tumor volume (mm^3) was calculated. The calculation expression is as shown below.
(§3) Tumor volume (mm^3)=1/2×Major axis (mm)×[Minor axis (mm)]^2
(§4) Everolimus was suspended in 30% propylene glycol and 5% Tween 80, and orally administered at a liquid volume of 10 mL/kg. Taselisib was suspended in 0.5% methyl cellulose and 0.2% Tween 80, and orally administered at a liquid volume of 10 mL/kg. Abemaciclib was suspended in 1% hydroxyethyl cellulose and 0.1% antifoam/25 mM phosphate buffer, pH2, and orally administered at a liquid volume of 10 mL/kg.
MDA-MB-453 cells, a human breast cancer cell line, purchased from ATCC (American Type Culture Collection) were suspended in Matrigel basement membrane matrix, and 1×10^7 cells were subcutaneously transplanted to the right flank of each female nude mouse, and the mice were randomly grouped 7 days after the transplantation (Day 0). […] Tucatinib was administered once a day, five times a week, at a dose of 100 mg/kg for three weeks.

The test system of another experiment is JIMT-1 cells. The experiment in a line: Antitumor test (2): nude mice with subcutaneously transplanted JIMT-1 cells. The format is in vivo, human. The following applies: single administration; antibody-drug conjugate (1) 10 mg/kg iv on Day 0. The method, then: as §1, §2, §3, §4
Experiment [2] relates to MDA-MB-453 cells. The experiment in a line: Antitumor test (1): nude mice with subcutaneously transplanted MDA-MB-453 cells. Type of experiment: in vivo, human. The following applies: single administration; antibody-drug conjugate (1) 0.5 mg/kg intravenously on Day 0; BALB/c nude mice. The method, then:
as §1, §2, §3, §4
Everolimus was administered once a day, five times a week, at a dose of 5 mg/kg for 3 weeks. Taselisib was administered once a day, five times a week, at a dose of 5 mg/kg for 3 weeks. Abemaciclib was administered once a day, five times a week, at a dose of 30 mg/kg for 2 weeks.

The next experiment has as its system KPL-4 cells. Description: Antitumor test (4): nude mice with subcutaneously transplanted KPL-4 cells. Type of experiment: in vivo, human. The following applies: single administration; antibody-drug conjugate (1) 7.5 mg/kg iv on Day 0. As to the method: as §1, §2, §3, §4
KPL-4 cells, a human breast cancer cell line, obtained from Dr. Junichi Kurebayashi, Kawasaki Medical School (British Journal of Cancer. (1999)79 (5/6). 707-717) were suspended in physiological saline, and 1.5×10^7 cells were subcutaneously transplanted to the right flank of each female nude mouse, and the mice were randomly grouped 17 days after the transplantation (Day 0). […] Tucatinib was suspended in 0.5% methyl cellulose, and orally administered at a liquid volume of 10 mL/kg. […]

For “antibody-drug conjugate (1): anti-HER2 antibody (SEQ ID NO: 1 residues 1-449, SEQ ID NO: 2 residues 1-214) conjugated to the drug-linker via thioether bond; DAR 7.7 or 7.8”, the “Synergy Score, combination with Mubritinib” value in the experiment on NCI-N87 cell line is listed as −0.06. Besides, the “tumor growth inhibition (TGI)” value with MDA-MB-453 cells [1] is on record as 52%; in the experiment on JIMT-1 cells, 53%; with MDA-MB-453 cells [2], 75%; in the experiment on KPL-4 cells it was 78%.
